In US5554631A, “5-pyrrolyl-6-halogeno-2-pyridylmethylsulfinyl benzimidazole derivatives” (Il-Yang Pharm. Co., Ltd., priority 1994, dated 1996):
Like-named read-outs stand apart in the source and are kept apart here.

Tested on: ICR (male, female) mouse
Details: oral, 14 days
Experimental: Five weeks aged ICR (male, female) mouse were pre-bred in the breeding cage for one week and then the animals showing a smooth gain in body weight were randomly selected and used in this test. The amount to be administered to the test animals was established on the basis of the maximum dose of 5,000 mg/kg with the common ratio of 1.5.
The test compounds in a powder were suspended in 0.5% methylcellulose and administered per oral using a lml syringe. The other specific conditions for administration are described in the following.
In the above test, the control group received only 0.5% methylcellulose.
(1) Clinical symptoms and death of test animals
The clinical symptoms and death of test animals caused by the test compounds were recorded immediately after administration of the test compounds and during the overall test period.

Measured: Lethality

COc1ccc2[nH]c([S+]([O-])Cc3ncc(C)c(OC)c3C)nc2c1 (stereo not drawn) [Omeprazole, 5-methoxy-2-[[(4-methoxy-3,5-dimethyl-2-pyridinyl)methyl]sulfinyl]-1H-benzimidazole]
0/5: female mouse, 987 mg/kg | female mouse, 1481 mg/kg | female mouse, 2222 mg/kg | female mouse, 3333 mg/kg | female mouse, 5000 mg/kg | male mouse, 1481 mg/kg | male mouse, 2222 mg/kg | male mouse, 3333 mg/kg | male mouse, 5000 mg/kg
